Test results: paper PMC8188423, “Investigating the phosphinic acid tripeptide mimetic DG013A as a tool compound inhibitor of the M1-aminopeptidase ERAP1” (Bioorganic & Medicinal Chemistry Letters, 2021)

Tested on: HCT116 cells
Details: 0.075 to 30 µM, 48 or 72 hours

For `CC(C)C[C@H](CP(=O)(O)[C@@H](N)CCc1ccccc1)C(=O)N[C@@H](Cc1c[nH]c2ccccc12)C(N)=O` [DG013A 1, ((S)-2-(((S)-1-amino-3-(1H-indol-3-yl)-1-oxopropan-2-yl)carbamoyl)-4-methylpentyl)((R)-1-amino-3-phenylpropyl)phosphinic acid, reference compound], the “antiproliferative activity in HCT116 cells” value was “Weak antiproliferative activity”.
